# From PubChem BioAssay AID440 (NMMLSC, 2006)
# By UniProt entry, the sequences of proteins in these tests, tags left out.
# UniProt P21462, whole entry: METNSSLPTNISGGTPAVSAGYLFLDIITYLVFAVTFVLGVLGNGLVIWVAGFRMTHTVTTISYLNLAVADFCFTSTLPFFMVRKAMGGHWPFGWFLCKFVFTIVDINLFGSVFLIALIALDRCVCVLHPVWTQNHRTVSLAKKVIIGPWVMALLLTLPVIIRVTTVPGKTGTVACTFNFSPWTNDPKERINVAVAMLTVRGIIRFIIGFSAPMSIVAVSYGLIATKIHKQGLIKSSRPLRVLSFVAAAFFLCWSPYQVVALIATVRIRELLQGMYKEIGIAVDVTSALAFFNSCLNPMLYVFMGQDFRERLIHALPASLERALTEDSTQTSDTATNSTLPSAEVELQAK
# The list shows a part of the results, in another mix than the full data. Active and inactive are the calls of the source. No stated cut-off is given here; in the data, active means inhibition above about 30%; inconclusive means no clear call, values can overlap the other calls; inactive means below that.
# Molecular target: fMet-Leu-Phe receptor (Homo sapiens) (UniProt P21462)
# Assay: human FPR ligands by binding competition, primary screen, cell-based, FPRL1 counter-screen, flow cytometry (AID 440);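 further: 0% = buffer wells and 100% = receptor blocker peptide wells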
# Details: FPR-expressing cells, fluorescent ligand binding, active compounds read high, concentration not given here
row,SMILES,inhibition
1,Fc1ccccc1NC1CCN(Cc2ccccc2)CC1,inactive: -3.6%
2,N#CC1(Nc2ccccc2)CCN(CCc2ccccc2)CC1,inactive: -7.1%
